Assay results reported in patent US20070105870A1.

Sequences of proteins named here, by UniProt entry; tags and fusion partners are left off.
UniProt P23975, whole entry: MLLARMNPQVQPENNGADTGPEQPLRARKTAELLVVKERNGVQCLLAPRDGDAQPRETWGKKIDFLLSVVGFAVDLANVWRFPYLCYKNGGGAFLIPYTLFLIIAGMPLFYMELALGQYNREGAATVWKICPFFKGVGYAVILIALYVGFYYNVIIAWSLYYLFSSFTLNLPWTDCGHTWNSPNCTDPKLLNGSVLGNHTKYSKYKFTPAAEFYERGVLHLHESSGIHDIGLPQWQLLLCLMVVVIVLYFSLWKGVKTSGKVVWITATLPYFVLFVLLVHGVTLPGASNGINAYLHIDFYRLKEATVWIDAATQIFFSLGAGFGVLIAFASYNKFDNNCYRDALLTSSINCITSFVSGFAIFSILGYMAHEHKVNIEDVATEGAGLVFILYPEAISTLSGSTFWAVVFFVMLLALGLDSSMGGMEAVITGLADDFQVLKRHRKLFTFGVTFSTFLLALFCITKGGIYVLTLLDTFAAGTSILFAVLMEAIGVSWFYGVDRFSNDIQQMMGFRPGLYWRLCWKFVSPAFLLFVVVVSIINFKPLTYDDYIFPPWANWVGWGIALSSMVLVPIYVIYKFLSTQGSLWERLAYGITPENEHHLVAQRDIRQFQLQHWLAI

Target: human noradrenaline transporter (hNET) (Homo sapiens, UniProt P23975)
Experiment: [3H]Nisoxetine binding to the human noradrenaline transporter (SPA, HEK-293 membranes)
Conditions: read-out: NRI Ki; inhibition of [3H]Nisoxetine (12 nM) binding to hNET membranes; Ki from IC50 by Cheng-Prusoff

SMILES	Ki [nM]
FC(F)Oc1ccccc1CC(c1ccccc1)N1CCNCC1 (centres unmarked)	28
FC(F)Oc1ccccc1CC(c1ccccc1)N1CCNCC1 (single isomer, unassigned)	14

This is a selection: effects in other tests are not listed, and their absence says nothing.
